The test has as its target recombinant 11β-HSD1 protein (Homo sapiens, UniProt P28845). Briefly: 11β-HSD1 SPA (Scintillation Proximity Assay) enzyme inhibition test, 384-well format. Particulars: read-out: IC50 (concentration which inhibits 50% of the activity of 11β-HSD1); 3H-cortisone and NADPH; cortisol formed measured by SPA; tested form: oxalate (1/2). The text has this:
The compounds according to the invention formed the subject of pharmacological tests which make it possible to determine their inhibiting effect on the 11β-HSD1 enzyme, which is an enzyme which is involved in the metabolism of lipids or the metabolism of glucose.
These tests consisted in measuring the in vitro inhibiting activity of the compounds of the invention by virtue of an SPA (Scintillation Proximity Assay) test in 384-well format. The recombinant 11β-HSD1 protein was produced in the yeast S. cerevisiae. The reaction was carried out by incubating the enzyme in the presence of ^3H-cortisone and of NADPH, in the absence or in the presence of an increasing concentration of inhibitor. SPA beads coupled to an antimouse antibody, which are preincubated with anticortisol antibody, made it possible to measure the amount of cortisol formed during the reaction.
The inhibiting activity with regard to the enzyme 11β-HSD1 is given by the concentration which inhibits 50% of the activity of 11β-HSD1 (IC50).

Protein sequences, listed by entry. Tags and fused reporters are not part of them.
UniProt P28845, whole entry: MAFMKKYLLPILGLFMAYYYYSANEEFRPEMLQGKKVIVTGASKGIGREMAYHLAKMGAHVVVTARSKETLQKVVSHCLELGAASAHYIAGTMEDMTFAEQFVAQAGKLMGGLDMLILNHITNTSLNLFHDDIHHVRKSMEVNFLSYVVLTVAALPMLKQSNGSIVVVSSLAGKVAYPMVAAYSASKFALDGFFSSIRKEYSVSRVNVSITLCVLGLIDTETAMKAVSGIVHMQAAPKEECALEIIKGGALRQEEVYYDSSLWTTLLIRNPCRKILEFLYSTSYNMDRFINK

Each structure is given as a SMILES string. pIC50: −log10 of the molar value.

With `CC1CCc2ccccc2N1C(=O)N1CCC(c2cn(C)cn2)CC1` (stereo not shown), the pIC50 is 6.64.

The values above are taken from patent US7947834B2, “Substituted quinoxalines, their preparation and their therapeutical use as 11βHSD1 modulators” (Sanofi-Aventis, priority 2006, dated 2011).
